{"source": "paper PMC3772838", "about": "“Preclinical Development of a Novel Class of CXCR4 Antagonist Impairing Solid Tumors Growth and Metastases” (PLoS ONE, 2013)", "conditions": "prevented in vivo evaluation"}
{"substance": "Arg-Ala-[Cys-Arg-Tyr-Trp-Cys] [Peptide T]", "values": [{"measurement": "solubility", "result": "poor solubility"}]}
